Laboratory results as given in ChEMBL document CHEMBL1124379, “Selective and enantiospecific acylation of kappa opioid receptors by (1S,2S)-trans-2-isothiocyanato-N-methyl-N-[2-(1-pyrrolidinyl) cyclohexy l] benzeneacetamide. Demonstration of kappa receptor heterogeneity” (1989).

Sequences of proteins named here, by UniProt entry; tags and fusion partners are left off. A change or cut given only in a name is not applied to a line headed by its entry.
UniProt P41144: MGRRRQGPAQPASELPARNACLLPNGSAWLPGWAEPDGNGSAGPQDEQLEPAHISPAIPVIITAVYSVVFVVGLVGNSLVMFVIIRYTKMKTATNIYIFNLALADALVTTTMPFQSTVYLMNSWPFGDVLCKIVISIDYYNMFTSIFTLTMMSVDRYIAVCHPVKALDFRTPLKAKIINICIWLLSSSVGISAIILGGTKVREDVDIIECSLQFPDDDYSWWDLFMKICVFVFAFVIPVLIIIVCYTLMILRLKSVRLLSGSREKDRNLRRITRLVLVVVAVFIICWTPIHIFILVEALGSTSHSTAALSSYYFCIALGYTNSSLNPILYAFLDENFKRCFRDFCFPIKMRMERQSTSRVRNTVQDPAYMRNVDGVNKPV
UniProt P97266, whole entry, looked up: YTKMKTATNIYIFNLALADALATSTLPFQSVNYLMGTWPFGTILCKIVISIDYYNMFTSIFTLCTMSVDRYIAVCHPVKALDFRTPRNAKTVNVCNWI
UniProt Q99720, whole entry, looked up: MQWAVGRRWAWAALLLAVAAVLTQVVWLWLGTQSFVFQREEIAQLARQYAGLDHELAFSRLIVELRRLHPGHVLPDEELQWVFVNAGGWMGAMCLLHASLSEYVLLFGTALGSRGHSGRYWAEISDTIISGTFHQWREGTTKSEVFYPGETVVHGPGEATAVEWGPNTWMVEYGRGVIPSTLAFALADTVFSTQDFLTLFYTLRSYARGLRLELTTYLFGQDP

What was measured:
[1] = target: Kappa-type opioid receptor (Cavia porcellus) (UniProt P41144); test: Percent inhibition of binding of selective kappa agonist to that of control in guinea pig brain membrane using [3H]U-69593 as radioligand; design: scale not given: the % may be the effect or the level left
[2] = target: Mu-type opioid receptor (Cavia porcellus) (UniProt P97266); test: In vitro inhibition for Mu opioid receptor binding site in guinea pig brain membrane using [3H]-FOXY as radioligand
[3] = target: Kappa-type opioid receptor (Cavia porcellus) (UniProt P41144); test: In vitro inhibition for opioid binding site in guinea pig brain membrane using [3H]U-69593 as radioligand
[4] = target: Kappa-type opioid receptor (Cavia porcellus) (UniProt P41144); test: In vitro inhibition for Opioid receptor kappa 1 binding site in guinea pig brain membrane using [3H]bremazocine as radioligand
[5] = target: Sigma non-opioid intracellular receptor 1 (Homo sapiens) (UniProt Q99720); test: In vitro inhibition for opioid binding site in guinea pig brain membrane using [3H]DADLE as radioligand; conditions: Cavia porcellus
[6] = target: Sigma non-opioid intracellular receptor 1 (Homo sapiens) (UniProt Q99720); test: Percent inhibition of binding of selective kappa agonist to that of control in guinea pig brain membrane using [3H]DADLE as radioligand; design: scale not given: the % may be the effect or the level left; conditions: Cavia porcellus
[7] = target: Kappa-type opioid receptor (Cavia porcellus) (UniProt P41144); test: Percent inhibition of binding of selective kappa agonist to that of control in guinea pig brain membrane using [3H]bremazocine as radioligand; design: scale not given: the % may be the effect or the level left
[8] = target: Mu-type opioid receptor (Cavia porcellus) (UniProt P97266); test: Percent inhibition of binding of selective kappa agonist to that of control in guinea pig brain membrane using [3H]FOXY as radioligand; design: scale not given: the % may be the effect or the level left
[9] = target: Kappa-type opioid receptor (Cavia porcellus) (UniProt P41144); test: In vitro inhibition for Opioid receptor kappa 1 binding site in guinea pig brain membrane using [3H]U-69593 as radioligand
[10] = target: Mu-type opioid receptor (Cavia porcellus) (UniProt P97266); test: In vitro inhibition for opioid binding site in guinea pig brain membrane using [3H]FOXY as radioligand

CN(C(=O)Cc1ccccc1N=C=S)[C@@H]1CCCC[C@H]1N1CCCC1
Activity [1]: 95.9%
Specific binding [2]: 96.8 fM/mg
Specific binding [3]: 14.5 fM/mg
Specific binding [4]: 49.9 fM/mg
Specific binding [5]: 24.4 fM/mg
Activity [6]: 89%
Activity [7]: 69%
Activity [8]: 110%

CN(C(=O)Cc1ccccc1N=C=S)[C@H]1CCCC[C@@H]1N1CCCC1
Activity [1]: 11.2%
Specific binding [3]: 1.7 fM/mg
Specific binding [5]: 41.5 fM/mg
Activity [6]: 100%
Activity [7]: 97.6%
Specific binding [9]: 56.4 fM/mg
Activity [8]: 119%
Specific binding [10]: 86 fM/mg
